# Literature values in article PMC8131289, “Direct Comparison of the Prediction of the Unbound Brain-to-Plasma Partitioning Utilizing Machine Learning Approach and Mechanistic Neuropharmacokinetic Model” (The AAPS Journal, 2021).
# The chains behind the UniProt entries cited, without tags or fusion partners. Where a name states a change or a piece, a line headed by the entry shows the natural chain unless it says otherwise.
# UniProt Q9UNQ0: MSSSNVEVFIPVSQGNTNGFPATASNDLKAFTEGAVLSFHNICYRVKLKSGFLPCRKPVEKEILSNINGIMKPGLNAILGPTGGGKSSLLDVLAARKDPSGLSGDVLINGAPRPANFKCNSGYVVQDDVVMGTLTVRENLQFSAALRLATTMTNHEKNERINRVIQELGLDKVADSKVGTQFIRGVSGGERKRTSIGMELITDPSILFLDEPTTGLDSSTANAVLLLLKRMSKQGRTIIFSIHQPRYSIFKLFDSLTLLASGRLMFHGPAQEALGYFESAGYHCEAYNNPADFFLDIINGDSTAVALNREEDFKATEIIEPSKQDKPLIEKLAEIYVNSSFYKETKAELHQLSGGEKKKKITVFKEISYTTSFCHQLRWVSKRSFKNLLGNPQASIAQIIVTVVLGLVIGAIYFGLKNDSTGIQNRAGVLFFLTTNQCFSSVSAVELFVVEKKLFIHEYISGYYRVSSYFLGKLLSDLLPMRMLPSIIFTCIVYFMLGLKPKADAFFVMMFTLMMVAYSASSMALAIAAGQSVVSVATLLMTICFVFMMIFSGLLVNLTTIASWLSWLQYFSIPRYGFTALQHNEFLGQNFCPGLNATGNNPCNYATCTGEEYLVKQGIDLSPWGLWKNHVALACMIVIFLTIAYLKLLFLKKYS
# Molecular target: BCRP (Homo sapiens, UniProt Q9UNQ0)
# Settings: MDCK-BCRP cells, external dataset; ref (17)
compound,measurement,value
Cc1cc2c(s1)Nc1ccccc1N=C2N1CCN(C)CC1 [Olanzapine],Efflux ratio BCRP,1.2
